Experimental data taken from US20230201118A1, “PRODRUG COPOLYMERS AND POLYMERIC MICELLES THEREOF FOR THE DELIVERY OF SHORT-CHAIN FATTY ACIDS, THE PROMOTION OF GUT HEALTH, AND THE TREATMENT OF IMMUNE AND/OR INFLAMMATORY CONDITIONS AND FOOD ALLERGY” (The University of Chicago, priority 2021, published 2023).

Conditions: at the block size ratios used

Substance	butyrate by weight [%]
poly(2-hydroxypropyl methacrylamide)-b-poly(N-(2-butanoyloxyethyl) methacrylamide) [pHPMA-b-pBMA]	28
poly(methacrylic acid)-b-poly(N-(2-butanoyloxyethyl) methacrylamide) [pMAA-b-pBMA]	28
